Source: article PMC11207571, “Applicability of MDR1 Overexpressing Abcb1KO-MDCKII Cell Lines for Investigating In Vitro Species Differences and Brain Penetration Prediction” (Pharmaceutics, 2024)

Chains of the proteins cited; added tags and fusions are not shown. Lines headed by an entry give the natural chain unless they say otherwise; changes in a name come on top. Residues count along the entry.
UniProt P21447, whole entry: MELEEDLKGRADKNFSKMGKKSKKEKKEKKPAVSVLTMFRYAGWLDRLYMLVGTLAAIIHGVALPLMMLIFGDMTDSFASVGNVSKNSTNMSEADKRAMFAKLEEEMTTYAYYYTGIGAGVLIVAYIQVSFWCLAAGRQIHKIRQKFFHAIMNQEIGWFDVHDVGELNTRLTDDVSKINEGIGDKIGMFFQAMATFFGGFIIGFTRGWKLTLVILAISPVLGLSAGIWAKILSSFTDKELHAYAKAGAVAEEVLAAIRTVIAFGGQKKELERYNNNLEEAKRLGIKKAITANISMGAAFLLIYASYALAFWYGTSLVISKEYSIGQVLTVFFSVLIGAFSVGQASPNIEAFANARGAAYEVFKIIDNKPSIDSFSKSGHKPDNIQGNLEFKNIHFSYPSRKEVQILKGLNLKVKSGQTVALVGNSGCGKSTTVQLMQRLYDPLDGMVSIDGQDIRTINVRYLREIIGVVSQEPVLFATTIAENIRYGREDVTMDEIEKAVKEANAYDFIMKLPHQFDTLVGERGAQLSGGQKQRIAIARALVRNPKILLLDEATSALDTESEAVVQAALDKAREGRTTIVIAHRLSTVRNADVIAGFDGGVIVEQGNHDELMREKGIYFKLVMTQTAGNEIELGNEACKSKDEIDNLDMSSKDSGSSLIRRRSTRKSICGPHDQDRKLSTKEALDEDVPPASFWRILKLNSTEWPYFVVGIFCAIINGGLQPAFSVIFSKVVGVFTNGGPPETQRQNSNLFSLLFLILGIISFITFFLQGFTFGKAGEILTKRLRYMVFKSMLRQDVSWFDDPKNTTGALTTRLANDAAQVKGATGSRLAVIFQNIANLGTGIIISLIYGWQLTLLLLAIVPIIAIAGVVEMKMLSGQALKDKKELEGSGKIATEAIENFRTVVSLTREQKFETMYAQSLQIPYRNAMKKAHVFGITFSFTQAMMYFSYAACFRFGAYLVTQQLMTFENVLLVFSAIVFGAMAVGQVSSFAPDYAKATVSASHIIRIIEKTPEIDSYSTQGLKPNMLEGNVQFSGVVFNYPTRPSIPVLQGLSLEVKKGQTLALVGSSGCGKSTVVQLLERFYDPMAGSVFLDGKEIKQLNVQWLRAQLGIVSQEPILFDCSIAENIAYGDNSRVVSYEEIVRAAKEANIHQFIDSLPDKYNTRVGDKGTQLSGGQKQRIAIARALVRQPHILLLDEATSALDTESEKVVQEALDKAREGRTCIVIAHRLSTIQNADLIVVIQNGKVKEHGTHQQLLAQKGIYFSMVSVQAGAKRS
UniProt P08183, whole entry: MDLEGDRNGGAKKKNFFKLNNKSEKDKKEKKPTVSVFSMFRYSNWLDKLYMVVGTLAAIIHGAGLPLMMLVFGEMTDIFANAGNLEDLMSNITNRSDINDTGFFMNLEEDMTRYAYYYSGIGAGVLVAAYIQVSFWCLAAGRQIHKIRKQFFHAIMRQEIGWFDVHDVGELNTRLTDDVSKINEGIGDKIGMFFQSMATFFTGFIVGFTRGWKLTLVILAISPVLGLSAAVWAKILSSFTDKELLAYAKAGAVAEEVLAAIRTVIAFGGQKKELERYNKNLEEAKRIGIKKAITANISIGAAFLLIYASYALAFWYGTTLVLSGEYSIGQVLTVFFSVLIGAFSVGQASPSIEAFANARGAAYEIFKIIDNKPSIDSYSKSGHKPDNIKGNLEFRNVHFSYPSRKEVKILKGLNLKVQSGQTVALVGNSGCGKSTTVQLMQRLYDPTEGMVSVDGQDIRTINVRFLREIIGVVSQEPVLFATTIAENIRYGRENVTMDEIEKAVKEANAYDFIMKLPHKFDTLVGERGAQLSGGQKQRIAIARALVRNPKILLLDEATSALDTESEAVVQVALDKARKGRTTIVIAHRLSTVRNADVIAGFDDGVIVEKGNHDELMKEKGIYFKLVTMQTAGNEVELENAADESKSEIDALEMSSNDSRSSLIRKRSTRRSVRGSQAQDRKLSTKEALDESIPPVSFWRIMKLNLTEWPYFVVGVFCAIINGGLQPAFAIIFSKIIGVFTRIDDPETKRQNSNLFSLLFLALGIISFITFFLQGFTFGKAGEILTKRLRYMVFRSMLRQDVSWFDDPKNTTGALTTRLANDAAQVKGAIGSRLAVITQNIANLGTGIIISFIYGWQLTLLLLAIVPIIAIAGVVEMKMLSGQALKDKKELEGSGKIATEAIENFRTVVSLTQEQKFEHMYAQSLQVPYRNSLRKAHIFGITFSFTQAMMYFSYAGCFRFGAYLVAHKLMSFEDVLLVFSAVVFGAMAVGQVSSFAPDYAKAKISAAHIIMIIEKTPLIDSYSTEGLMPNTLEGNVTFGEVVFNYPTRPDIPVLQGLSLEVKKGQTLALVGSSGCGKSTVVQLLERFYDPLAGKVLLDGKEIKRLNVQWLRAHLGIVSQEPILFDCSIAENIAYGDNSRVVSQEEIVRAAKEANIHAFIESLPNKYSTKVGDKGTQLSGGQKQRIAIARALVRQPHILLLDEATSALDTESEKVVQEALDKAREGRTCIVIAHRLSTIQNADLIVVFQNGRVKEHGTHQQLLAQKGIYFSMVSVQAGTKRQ
UniProt Q9UNQ0: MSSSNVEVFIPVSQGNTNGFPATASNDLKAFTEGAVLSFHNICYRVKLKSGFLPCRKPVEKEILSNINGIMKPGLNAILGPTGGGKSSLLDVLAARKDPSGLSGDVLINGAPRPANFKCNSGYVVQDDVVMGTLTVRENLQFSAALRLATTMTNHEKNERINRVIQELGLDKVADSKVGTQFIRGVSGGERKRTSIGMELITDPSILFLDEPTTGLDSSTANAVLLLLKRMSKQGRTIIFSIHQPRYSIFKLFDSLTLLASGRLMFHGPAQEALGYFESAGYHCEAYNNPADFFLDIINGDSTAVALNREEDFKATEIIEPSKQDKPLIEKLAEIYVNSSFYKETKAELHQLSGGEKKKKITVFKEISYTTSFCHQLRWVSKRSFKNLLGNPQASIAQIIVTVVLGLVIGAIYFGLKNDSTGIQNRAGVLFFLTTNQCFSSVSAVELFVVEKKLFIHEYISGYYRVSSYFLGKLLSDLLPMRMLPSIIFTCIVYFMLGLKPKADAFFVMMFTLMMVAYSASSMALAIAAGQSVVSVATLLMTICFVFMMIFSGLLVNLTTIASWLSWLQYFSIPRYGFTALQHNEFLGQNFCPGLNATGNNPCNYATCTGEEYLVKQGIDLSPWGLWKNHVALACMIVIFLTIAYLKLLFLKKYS
UniProt Q6PSM0, 1-1272: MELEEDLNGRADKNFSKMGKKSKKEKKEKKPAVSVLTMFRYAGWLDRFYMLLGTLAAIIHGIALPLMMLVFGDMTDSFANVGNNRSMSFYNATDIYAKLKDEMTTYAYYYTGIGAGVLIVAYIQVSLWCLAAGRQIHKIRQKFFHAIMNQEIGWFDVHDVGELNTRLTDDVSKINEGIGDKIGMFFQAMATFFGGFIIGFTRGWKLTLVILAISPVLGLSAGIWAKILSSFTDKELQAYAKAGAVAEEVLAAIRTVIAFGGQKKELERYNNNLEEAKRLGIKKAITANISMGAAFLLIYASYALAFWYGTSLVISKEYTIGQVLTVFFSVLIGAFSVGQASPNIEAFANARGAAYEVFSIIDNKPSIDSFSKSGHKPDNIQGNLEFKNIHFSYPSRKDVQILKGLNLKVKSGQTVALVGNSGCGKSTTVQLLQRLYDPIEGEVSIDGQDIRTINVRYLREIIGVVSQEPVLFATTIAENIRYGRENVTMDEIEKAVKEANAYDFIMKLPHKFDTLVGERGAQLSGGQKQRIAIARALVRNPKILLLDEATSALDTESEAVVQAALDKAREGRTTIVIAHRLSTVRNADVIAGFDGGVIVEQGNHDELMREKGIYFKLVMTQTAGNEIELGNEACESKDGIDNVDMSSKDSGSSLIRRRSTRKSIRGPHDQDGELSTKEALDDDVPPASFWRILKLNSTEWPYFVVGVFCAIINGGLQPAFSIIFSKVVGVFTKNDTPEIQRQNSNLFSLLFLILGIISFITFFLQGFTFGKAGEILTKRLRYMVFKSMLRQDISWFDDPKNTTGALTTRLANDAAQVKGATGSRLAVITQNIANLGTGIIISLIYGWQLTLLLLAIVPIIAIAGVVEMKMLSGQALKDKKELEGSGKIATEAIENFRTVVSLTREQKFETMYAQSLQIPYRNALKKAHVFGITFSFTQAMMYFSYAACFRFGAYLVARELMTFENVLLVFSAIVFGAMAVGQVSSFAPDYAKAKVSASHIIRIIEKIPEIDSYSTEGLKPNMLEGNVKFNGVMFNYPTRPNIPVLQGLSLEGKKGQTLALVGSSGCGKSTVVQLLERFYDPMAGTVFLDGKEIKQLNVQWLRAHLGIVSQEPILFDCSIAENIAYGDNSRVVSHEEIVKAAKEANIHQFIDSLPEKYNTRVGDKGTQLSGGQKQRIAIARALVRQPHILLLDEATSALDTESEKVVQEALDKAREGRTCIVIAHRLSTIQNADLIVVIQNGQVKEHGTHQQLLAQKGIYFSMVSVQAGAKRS
UniProt Q8HZQ6, 1-1283: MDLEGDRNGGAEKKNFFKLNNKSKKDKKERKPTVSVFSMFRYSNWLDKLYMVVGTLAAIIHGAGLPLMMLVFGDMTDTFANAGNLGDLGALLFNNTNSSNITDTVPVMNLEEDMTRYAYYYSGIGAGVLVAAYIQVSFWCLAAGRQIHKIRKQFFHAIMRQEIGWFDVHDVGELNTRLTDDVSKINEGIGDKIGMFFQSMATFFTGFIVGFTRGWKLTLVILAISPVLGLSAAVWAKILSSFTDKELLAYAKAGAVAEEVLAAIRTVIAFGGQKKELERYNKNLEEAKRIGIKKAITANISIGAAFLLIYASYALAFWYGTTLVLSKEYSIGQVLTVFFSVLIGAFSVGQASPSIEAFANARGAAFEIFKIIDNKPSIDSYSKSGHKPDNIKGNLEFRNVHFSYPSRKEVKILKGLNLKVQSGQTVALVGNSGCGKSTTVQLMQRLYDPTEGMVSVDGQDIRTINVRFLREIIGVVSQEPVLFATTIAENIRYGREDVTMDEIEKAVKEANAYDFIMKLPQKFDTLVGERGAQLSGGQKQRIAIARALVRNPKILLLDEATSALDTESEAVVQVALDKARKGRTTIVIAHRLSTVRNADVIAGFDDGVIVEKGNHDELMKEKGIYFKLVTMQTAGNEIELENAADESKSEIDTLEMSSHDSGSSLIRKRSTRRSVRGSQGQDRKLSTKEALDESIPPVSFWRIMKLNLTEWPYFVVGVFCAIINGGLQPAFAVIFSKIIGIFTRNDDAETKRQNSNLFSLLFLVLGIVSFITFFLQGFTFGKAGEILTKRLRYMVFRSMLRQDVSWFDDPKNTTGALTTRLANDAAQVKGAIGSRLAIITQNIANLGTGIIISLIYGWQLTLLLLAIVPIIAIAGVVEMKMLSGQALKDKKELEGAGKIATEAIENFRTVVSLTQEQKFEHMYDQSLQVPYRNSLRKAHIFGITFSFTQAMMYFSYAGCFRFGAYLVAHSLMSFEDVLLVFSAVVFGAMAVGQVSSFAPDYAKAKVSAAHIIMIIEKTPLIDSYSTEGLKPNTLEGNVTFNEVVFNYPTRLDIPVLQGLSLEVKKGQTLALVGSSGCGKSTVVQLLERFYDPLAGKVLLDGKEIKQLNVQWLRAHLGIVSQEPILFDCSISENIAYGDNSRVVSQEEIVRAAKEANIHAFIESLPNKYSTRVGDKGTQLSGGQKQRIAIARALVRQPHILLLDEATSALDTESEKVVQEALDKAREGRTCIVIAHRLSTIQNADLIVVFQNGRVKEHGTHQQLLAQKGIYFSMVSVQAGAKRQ

Columns and labels:
mouse Mdr1a = mouse Mdr1a (Mus musculus, UniProt P21447); conditions: pH 7.4
human MDR1 = human MDR1 (Homo sapiens, UniProt P08183); assay: Bidirectional transport assay, efflux ratio in Abcb1KO-MDCKII hMDR1 cells; conditions: MDCK-MDR1, pH 7.4
human BCRP [1] = molecular target: T1, human BCRP (Homo sapiens, UniProt Q9UNQ0); assay: Bidirectional transport assay, efflux ratio in MDCKII-BCRP cells; conditions: pH 7.4
rat Mdr1a = rat Mdr1a (Rattus norvegicus, UniProt Q6PSM0); assay: Bidirectional transport assay, efflux ratio in Abcb1KO-MDCKII rMDR1 cells; conditions: pH 7.4
[2] = Bidirectional transport assay, efflux ratio in Abcb1KO-MDCKII-Mock control cells; conditions: dog, MDCK, pH 7.4
human BCRP [3] = molecular target: T1, human BCRP; assay: in vitro; conditions: pH 7.4
cynomolgus monkey Mdr1 = cynomolgus monkey Mdr1 (Macaca fascicularis, UniProt Q8HZQ6); assay: Bidirectional transport assay, efflux ratio in Abcb1KO-MDCKII cyMDR1 cells; conditions: pH 7.4

| Compound | efflux ratio at 120 min, 1 µM (mouse Mdr1a) | efflux ratio at 120 min, 1 µM (human MDR1) | efflux ratio at 120 min, 1 µM (human BCRP [1]) | efflux ratio at 120 min, 1 µM (rat Mdr1a) | efflux ratio at 120 min, 1 µM [2] | efflux ratio at 120 min, 1 µM (human BCRP [3]) | efflux ratio at 120 min, 1 µM (cynomolgus monkey Mdr1) |
| --- | --- | --- | --- | --- | --- | --- | --- |
| Cc1nc2n(c(=O)c1CCN1CCC(c3noc4cc(F)ccc34)CC1)CCCC2 [Risperidone] | 2.2 ± 0.31 | 3.4 ± 0.52 | 0.94 ± 0.13 | 2.38 ± 1 | 0.52 ± 0.04 | – | – |
| CC(C)CN(C[C@@H](O)[C@H](Cc1ccccc1)NC(=O)O[C@H]1CCOC1)S(=O)(=O)c1ccc(N)cc1 [Amprenavir] | 31.9 ± 0.96 | – | – | 36.1 ± 2.46 | 0.63 ± 0.03 | 4.16 ± 0.37 | 24.9 ± 1.15 |
